This is an account of results in patent US20180325872A1, “COMPOUNDS FOR TREATMENT OF CANCER” (UNIVERSITY OF TENNESSEE RESEARCH FOUNDATION, priority 2013, published 2018).

One data set has as its system BCRP. The data set is described as follows: Cytotoxicity in cells with BCRP-mediated resistance. To be noted: discussion of Table 11B.
Data set [1] in a line: Pharmacokinetic study in Sprague-Dawley rats. Conditions: rat, IV 5 mg/kg, N = 3.

Take `CCc1c2c(nc3ccc(O)cc13)-c1cc3c(c(=O)n1C2)COC(=O)[C@]3(O)CC` [SN-38]: the “resistance index, BCRP” value in the data set on BCRP is on record as 41.
A word on the AUC: it is concentration integrated over time. Lower therefore signals less exposure. With `COc1cc(C(=O)c2csc(Nc3ccc4[nH]ccc4c3)n2)cc(OC)c1OC` [compound 55], in data set [1], the AUC is 509 ± 73 µg·min/mL.
